Sequences of proteins named here, by UniProt entry; tags and fusion partners are left off.
UniProt P26358, whole entry: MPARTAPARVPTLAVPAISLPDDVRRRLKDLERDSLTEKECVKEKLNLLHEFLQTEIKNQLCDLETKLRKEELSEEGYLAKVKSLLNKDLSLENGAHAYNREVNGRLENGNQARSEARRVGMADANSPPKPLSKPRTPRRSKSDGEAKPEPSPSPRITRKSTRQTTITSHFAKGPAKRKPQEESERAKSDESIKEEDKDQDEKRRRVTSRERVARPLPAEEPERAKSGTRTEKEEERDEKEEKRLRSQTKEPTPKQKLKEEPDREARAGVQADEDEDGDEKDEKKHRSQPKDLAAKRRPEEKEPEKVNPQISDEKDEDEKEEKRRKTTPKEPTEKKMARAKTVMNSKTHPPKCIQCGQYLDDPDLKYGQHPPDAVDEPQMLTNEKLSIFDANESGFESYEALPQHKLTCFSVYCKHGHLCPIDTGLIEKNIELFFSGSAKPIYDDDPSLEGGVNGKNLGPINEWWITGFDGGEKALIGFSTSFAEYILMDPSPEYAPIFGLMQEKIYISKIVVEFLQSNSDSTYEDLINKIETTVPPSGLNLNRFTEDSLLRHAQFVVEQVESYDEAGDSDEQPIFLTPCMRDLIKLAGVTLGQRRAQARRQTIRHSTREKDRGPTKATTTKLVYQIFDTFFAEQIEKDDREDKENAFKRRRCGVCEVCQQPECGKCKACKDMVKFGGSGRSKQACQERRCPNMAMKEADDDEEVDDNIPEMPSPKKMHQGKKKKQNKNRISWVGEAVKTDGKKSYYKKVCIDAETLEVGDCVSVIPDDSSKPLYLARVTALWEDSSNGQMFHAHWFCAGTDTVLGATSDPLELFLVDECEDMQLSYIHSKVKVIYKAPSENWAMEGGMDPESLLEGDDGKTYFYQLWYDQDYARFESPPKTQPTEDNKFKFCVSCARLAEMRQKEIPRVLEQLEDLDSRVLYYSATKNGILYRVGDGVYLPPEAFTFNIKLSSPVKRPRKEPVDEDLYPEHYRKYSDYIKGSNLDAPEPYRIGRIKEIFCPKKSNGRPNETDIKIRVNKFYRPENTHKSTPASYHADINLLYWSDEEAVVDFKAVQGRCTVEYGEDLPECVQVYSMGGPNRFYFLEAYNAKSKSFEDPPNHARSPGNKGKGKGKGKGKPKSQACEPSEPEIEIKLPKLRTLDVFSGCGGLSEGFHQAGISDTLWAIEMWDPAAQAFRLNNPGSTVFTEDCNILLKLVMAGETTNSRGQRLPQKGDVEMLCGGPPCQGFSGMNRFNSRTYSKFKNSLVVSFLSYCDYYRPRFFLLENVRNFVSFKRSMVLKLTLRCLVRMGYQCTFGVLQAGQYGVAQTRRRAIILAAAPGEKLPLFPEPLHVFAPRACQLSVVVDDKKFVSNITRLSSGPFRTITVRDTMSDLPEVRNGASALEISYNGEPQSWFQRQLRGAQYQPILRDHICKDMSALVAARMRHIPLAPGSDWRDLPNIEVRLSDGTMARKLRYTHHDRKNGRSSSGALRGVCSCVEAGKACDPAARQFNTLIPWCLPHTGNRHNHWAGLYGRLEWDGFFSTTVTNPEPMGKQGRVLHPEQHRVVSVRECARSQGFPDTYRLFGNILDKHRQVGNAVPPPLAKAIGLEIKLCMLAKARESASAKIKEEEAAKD
UniProt Q96KQ7, whole entry: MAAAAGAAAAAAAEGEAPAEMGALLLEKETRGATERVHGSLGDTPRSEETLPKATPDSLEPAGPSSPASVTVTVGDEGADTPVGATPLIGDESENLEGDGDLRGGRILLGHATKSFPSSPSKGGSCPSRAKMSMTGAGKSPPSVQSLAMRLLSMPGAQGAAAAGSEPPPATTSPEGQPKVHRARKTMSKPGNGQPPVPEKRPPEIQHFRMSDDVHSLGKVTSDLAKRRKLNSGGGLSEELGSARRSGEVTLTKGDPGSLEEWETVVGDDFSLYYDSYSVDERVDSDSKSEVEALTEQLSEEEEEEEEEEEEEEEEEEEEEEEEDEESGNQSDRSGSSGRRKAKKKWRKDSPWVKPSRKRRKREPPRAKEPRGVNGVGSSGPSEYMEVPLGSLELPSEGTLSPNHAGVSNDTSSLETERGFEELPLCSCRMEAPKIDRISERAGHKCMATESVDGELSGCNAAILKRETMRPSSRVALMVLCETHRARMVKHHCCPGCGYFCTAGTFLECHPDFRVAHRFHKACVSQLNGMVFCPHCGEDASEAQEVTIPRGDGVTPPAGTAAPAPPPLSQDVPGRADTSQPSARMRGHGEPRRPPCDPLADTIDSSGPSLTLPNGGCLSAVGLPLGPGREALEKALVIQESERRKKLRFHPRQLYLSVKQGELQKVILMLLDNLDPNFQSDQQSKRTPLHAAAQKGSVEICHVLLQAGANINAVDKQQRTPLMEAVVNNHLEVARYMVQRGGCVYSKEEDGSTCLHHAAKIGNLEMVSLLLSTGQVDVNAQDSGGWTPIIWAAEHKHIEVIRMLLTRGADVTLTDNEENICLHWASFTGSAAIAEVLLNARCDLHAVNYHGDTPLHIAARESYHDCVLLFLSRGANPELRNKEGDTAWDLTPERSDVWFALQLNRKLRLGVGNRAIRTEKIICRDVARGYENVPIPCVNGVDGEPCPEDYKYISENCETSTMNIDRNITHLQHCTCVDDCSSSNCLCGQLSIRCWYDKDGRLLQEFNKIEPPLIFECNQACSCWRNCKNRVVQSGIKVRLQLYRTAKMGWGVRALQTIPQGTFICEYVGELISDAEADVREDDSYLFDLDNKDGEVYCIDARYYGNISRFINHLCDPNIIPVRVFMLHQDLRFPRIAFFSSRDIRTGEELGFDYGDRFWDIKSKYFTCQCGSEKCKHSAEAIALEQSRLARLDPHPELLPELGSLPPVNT

In patent publication US20190127354A1, “2,4,6,7-TETRASUBSTITUTED QUINOLINE COMPOUNDS AS INHIBITORS OF DNA […]” (FUNDACIÓN PARA LA INVESTIGACIÓN MÉDICA APLICADA, priority 2015, published 2019):

Tests used:
[1] = molecular target: human DNMT1 (Homo sapiens, UniProt P26358); assay: DNMT1 enzyme activity assay (TR-FRET, EPIgeneous methyltransferase assay); assay type: biochemical; details: read-out: DNMT1 IC50; human DNMT1, 15 minutes at 37° C.
[2] = molecular target: human G9a enzyme (Homo sapiens, UniProt Q96KQ7); assay: G9a enzyme activity assay (TR-FRET); assay type: biochemical; details: read-out: G9a IC50, 1 hour at room temperature

CNC1CCC12CCN(c1cc(-c3ccc(C)o3)nc3cc(OCCCN4CCCC4)c(OC)cc13)CC2 (centres unmarked)
IC50 [1]: 1000 to 10000 nM
IC50 [2]: 500 to 1000 nM
